Measured values published in patent US6939953B2, “Leukotriene receptor” (Schering Corporation, priority 1999, dated 2005).

Target: T1, SP9030 (human leukotriene receptor, SEQ ID NO: 2) (Homo sapiens, UniProt Q9NPC1)
T1 construct: The ORF of SP9030 was cloned in the expression vector pCR3.1 (pCR3.1-SP9030); expressed in transfected cells; host or cells: COS-7 cells (membranes)
T1 sequence (Q9NPC1 1-358): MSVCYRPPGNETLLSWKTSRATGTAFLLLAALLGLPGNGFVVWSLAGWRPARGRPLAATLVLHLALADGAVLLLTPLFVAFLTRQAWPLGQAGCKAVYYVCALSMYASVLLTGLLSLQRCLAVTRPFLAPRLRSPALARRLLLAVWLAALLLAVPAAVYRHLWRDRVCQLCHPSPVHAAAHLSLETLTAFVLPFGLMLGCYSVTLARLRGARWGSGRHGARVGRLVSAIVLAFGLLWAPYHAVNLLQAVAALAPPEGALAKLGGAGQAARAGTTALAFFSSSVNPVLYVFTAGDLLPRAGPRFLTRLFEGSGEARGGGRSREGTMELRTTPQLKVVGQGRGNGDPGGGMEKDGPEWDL
Assay: Saturation radioligand binding assay with ^3H-LTB4 on membranes of COS-7 cells transfected with pCR3.1-SP9030
Conditions: COS-7 membranes, n=3
Method: COS-7 cells, grown in DMEM/10% FCS until 80-90% confluence, were transfected with SuperFect agent (Giagene) at 20 μg DNA/150 mm plate. Forty eight hours after transfection, medium was changed to Opti-MEM or DMEM/Opti-MEM(1:1)/5% FCS. Cells were harvested 72 hours after transfection and membranes from the cells were prepared as follows. The cells were washed with 20 ml PBS without Ca^2+/Mg^2+ and incubated with 10 ml […] Hepes pH 7.4, 0.5 mM PMSF, 20 μg/ml aprotinin. The cells were scraped off the plate and vortexed. The cell suspension was then centrifuged at 13,000 g at 4° C. for 15 min. The pellets were re-suspended in 1.8 ml 50 mM Tris-Cl, pH 7.5 and vortexed. The membranes were homogenized with a 23-gauge needle. The protein concentration of the membrane preparations was determined with the BCA agents (Pierce).
Radioligand binding assays were performed to test the ability of SP9030, when expressed in cultured cells, to bind ^3H-labeled leukotriene. The ORF of SP9030 was cloned in the expression vector pCR3.1 (pCR3.1-SP9030). COS-7 cells were transfected with pCR3.1-SP9030 or pCR3.1 alone (mock transfection). […]
The reactions were incubated for 1 hour at 4° C. while rotated slowly. […] Fifty microliters of scintillation fluid was added to the filters and counted to detect the bound radioligands. […]

^3H-leukotriene B4 [^3H-LTB4]
Kd (1 hour at 4° C.): 170 ± 70 pM
Bmax (saturation radioligand binding): 70 ± 8 fmol/mg
